Data: patent publication US20240174727A1, “LONG-ACTING NATRIURETIC PEPTIDES AND USES THEREOF” (Eli Lilly and Company, priority 2022, published 2024)

Target: T1, rat NPRA (Rattus norvegicus, UniProt P18910)
T1 construct: Full-Length cDNA Cloning and Generation of Cell Lines Overexpressing Natriuretic Peptide Receptors (NPRs); expressed in transfected cells; host or cells: Jump-in T-Rex HEK293 cells, pJTI R4 CMV-TO MCS pA vector, tetracycline induction
T1 sequence (P18910 29-1057): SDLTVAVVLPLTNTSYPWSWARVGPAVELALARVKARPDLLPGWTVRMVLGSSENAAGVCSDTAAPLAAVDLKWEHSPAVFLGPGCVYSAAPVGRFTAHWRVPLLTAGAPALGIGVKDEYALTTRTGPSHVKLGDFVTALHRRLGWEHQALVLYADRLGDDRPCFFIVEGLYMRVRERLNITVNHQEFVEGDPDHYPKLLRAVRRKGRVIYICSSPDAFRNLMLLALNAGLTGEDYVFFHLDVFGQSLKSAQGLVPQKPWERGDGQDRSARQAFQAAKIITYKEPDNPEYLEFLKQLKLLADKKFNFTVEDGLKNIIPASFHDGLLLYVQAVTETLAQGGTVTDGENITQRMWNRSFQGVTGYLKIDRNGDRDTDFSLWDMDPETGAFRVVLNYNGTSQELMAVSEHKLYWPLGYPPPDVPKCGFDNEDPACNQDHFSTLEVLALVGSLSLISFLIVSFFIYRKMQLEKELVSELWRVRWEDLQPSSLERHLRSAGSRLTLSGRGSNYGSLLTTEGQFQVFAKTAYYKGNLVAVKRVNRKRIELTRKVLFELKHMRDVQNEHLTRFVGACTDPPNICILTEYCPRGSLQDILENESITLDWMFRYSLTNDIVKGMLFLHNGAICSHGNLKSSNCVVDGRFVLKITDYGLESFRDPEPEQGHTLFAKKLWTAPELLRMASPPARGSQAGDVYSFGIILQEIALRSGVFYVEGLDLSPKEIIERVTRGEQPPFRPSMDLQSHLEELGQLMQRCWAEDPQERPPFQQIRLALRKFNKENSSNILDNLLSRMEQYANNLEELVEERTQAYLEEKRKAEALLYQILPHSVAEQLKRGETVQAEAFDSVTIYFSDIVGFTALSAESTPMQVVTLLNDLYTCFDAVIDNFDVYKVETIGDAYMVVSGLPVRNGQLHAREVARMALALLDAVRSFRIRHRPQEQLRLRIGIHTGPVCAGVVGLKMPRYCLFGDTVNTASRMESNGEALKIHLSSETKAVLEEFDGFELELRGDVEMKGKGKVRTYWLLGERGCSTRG
Test: Rat NPRA cGMP activity assay (HTRF) in HEK293 cells overexpressing NPRA
Type: cell-based
Outline: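 cGMP measured by HTRF and scaled between buffer (minimum) and 100 nM amidated rat ANP (maximum). Polypeptides in 10-fold steps from 10 μM to 1 pM, 0.5% DMSO, 0.5 mM IBMX, 40 min at room temperature, on induced NPRA-overexpressing HEK293 cells.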

[1] = cGMP Assay (EC50, pM) w/BSA rNPRA, assay buffer with 0.1% BSA
[2] = cGMP Assay (EC50, pM) w/Casein rNPRA, assay buffer with 0.1% casein

SMILES | EC50 [1] [pM] | EC50 [2] [pM]
CC[C@H](C)[C@@H]1NC(=O)[C@H](CCCNC(=N)N)NC(=O)[C@H](CC(=O)O)NC(=O)[C@H]([C@@H](C)CC)NC(=O)[C@H](CCCNC(=N)N)NC(=O)CNC(=O)CNC(=O)[C@H](Cc2ccccc2)NC(=O)[C@@H](NC(=O)[C@H](CO)NC(=O)[C@H](CO)NC(=O)[C@H](CCCNC(=N)N)NC(=O)[C@H](CCCNC(=N)N)NC(=O)[C@H](Cc2ccncc2)NC(=O)[C@H](CO)NC(=O)CNC(=O)[C@H](CCCCN)NC(=O)[C@H](CCC(=O)O)NC(=O)[C@H](CCCCN)NC(=O)[C@H](CCC(=O)O)NC(=O)[C@H](CCCCN)NC(=O)[C@H](CCC(=O)O)NC(=O)CC[C@H](NC(=O)CCCCCCCCCCCCCCCCCCC(=O)O)C(=O)O)CSCSC[C@@H](C(=O)N2CCC[C@H]2C(=O)N[C@@H](CO)C(=O)N[C@@H](Cc2ccccc2)C(=O)N[C@@H](CCCNC(=N)N)C(=O)N[C@@H](Cc2c[nH]cn2)C(=O)NCC(=O)NCC(=O)N[C@@H](CO)C(=O)N[C@@H](CO)C(=O)NCC(=O)N[C@@H](C)C(=O)N2CCC[C@H]2C(=O)N2CCC[C@H]2C(=O)N2CCC[C@H]2C(=O)N[C@@H](CO)C(N)=O)NC(=O)CNC(=O)[C@H](CC(C)C)NC(=O)CNC(=O)[C@H](CO)NC(=O)[C@H](CCC(N)=O)NC(=O)[C@H](Cc2c[nH]cn2)NC(=O)CNC1=O [Example 66] | 1.75e+06 | 9770
CC[C@H](C)[C@@H]1NC(=O)[C@H](CCCNC(=N)N)NC(=O)[C@H](CC(=O)O)NC(=O)[C@H]([C@@H](C)CC)NC(=O)[C@H](CCCNC(=N)N)NC(=O)[C@H](CCCCN)NC(=O)CNC(=O)[C@H](Cc2ccccc2)NC(=O)[C@@H](NC(=O)[C@H](CO)NC(=O)[C@H](CO)NC(=O)[C@H](CCCNC(=N)N)NC(=O)CCNC(=O)[C@H](CCCCN)NC(=O)[C@H](CCC(=O)O)NC(=O)CCOCCOCCOCCOCCOCCOCCOCCOCCOCCOCCOCCOCCOCCOCCOCCOCCOCCOCCOCCOCCOCCOCCOCCOCCNC(=O)CNC(=O)[C@H](CCCCN)NC(=O)[C@H](CCC(=O)O)NC(=O)[C@H](CCCCN)NC(=O)[C@H](CCC(=O)O)NC(=O)[C@H](CCCCN)NC(=O)[C@H](CCC(=O)O)NC(=O)CC[C@H](NC(=O)CCCCCCCCCCCCCCCCCCC(=O)O)C(=O)O)CSCSC[C@@H](C(=O)N2CCC[C@H]2C(=O)N[C@@H](CO)C(=O)N[C@@H](Cc2ccccc2)C(=O)N[C@@H](CCCNC(=N)N)C(=O)N[C@@H](Cc2c[nH]cn2)C(=O)NCC(=O)NCC(=O)N2CCC[C@H]2C(N)=O)NC(=O)CNC(=O)[C@H](CC(C)C)NC(=O)CNC(=O)[C@H](CO)NC(=O)[C@H](Cc2ccc(O)cc2)NC(=O)[C@H](Cc2c[nH]cn2)NC(=O)CNC1=O [Example 129] | 59400 | 2280
